This note sets out measurements from patent US7455837B2, “Compositions and methods for the diagnosis and treatment of sepsis” (The Regents of the University of Michigan, priority 2002, dated 2008).

The series is described as follows: Blood clearance of 125I-C5aRa in mice. Format: in vivo, mouse. As to the method: To evaluate the blood clearance of C5aRa, anesthetized mice were injected i.v. with C5aRa (1 mg/kg body weight) in 200 μL DPBS containing trace amounts of 1^25I-C5aRa (specific activity 33.9 μCi/μg). Sixty seconds after administration, 5 μL blood was drawn from a small incision at the tail tip, followed by direct pressure to stop further bleeding. Animals were killed after specified periods (1, 2, 3, 6, 12, 24, 36, 48, 72, 96 h) and the radioactivity of blood samples (100 μL aliquots) was measured in a gamma counter (1261 Multigamma, EG&G, Wallac, Gaithersburg, Md.) and compared with the value obtained 1.0 min after infusion of C5aRa.

Take `N=C(N)NCCC[C@@H]1NC(=O)[C@H](Cc2c[nH]c3ccccc23)NC(=O)[C@@H](CC2CCCCC2)NC(=O)[C@@H]2CCCN2C(=O)[C@@H](NC(=O)[C@@H](N)Cc2ccccc2)CCCNC1=O` [C5aRa, F[OPdChaWR]]: the “C5aRa concentration in blood as percent of the initial dose” value (36 h after application, i.v. 1 mg/kg) was found to be 10%. For the same compound, the “share of slower clearance phase in total area for blood concentration vs. time” value (single i.v. bolus 1 mg/kg) came to 63%.
